# Permeability data for macrocyclic peptides

Data: CycPeptMPDB; original report Townsend et al. 2020, doi:10.26434/chemrxiv.13335941.v1.

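Conditions beyond the assay type are not listed; see the original paper. The list need not hold all peptides of the study. Peptides that the database sets to -10, its floor, are left out.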

PAMPA measures passive passage through an artificial lipid membrane. P is given in units of 10^-6 cm/s (from log10 values with two decimals); larger means faster passage.

* CCCN1CC(=O)N[C@@H](CC(C)C)C(=O)N(C)[C@H](CC(C)C)C(=O)N2CCC[C@@H]2C(=O)N(C)[C@H](CC(C)C)C(=O)N[C@@H](Cc2ccccc2)C(=O)N2CCC[C@@H]2C1=O: PAMPA 3.2 × 10^-6 cm/s
* CC(C)C[C@@H]1NC(=O)[C@H](C)NC(=O)[C@H](Cc2ccccc2)NC(=O)[C@@H](CC(C)C)N(C)C(=O)[C@@H]2CCCN2C(=O)[C@H](CC(C)C)NC1=O: PAMPA 0.65 × 10^-6 cm/s
* CCCN1CC(=O)N[C@H](CC(C)C)C(=O)N[C@@H](CC(C)C)C(=O)N2CCC[C@H]2C(=O)N[C@@H](CC(C)C)C(=O)N[C@@H](Cc2ccccc2)C(=O)N2CCC[C@H]2C1=O: PAMPA 0.4 × 10^-6 cm/s
* CC(C)C[C@@H]1C(=O)N[C@H](CC(C)C)C(=O)N2CCC[C@@H]2C(=O)N(C)[C@@H](CC(C)C)C(=O)N[C@@H](Cc2ccccc2)C(=O)N2CCC[C@H]2C(=O)N[C@@H](C)C(=O)N1C: PAMPA 4.3 × 10^-6 cm/s
* CC(C)C[C@@H]1NC(=O)[C@@H](C)NC(=O)[C@@H]2CCCN2C(=O)[C@H](Cc2ccccc2)NC(=O)[C@H](CC(C)C)N(C)C(=O)[C@@H]2CCCN2C(=O)CN(Cc2ccccc2)C1=O: PAMPA 1.8 × 10^-6 cm/s
* CC(C)C[C@@H]1C(=O)N2CCC[C@H]2C(=O)N(Cc2ccccc2)CC(=O)N[C@@H](Cc2ccccc2)C(=O)N2CCC[C@H]2C(=O)N[C@H](C)C(=O)N(C)[C@@H](CC(C)C)C(=O)N1C: PAMPA 4.4 × 10^-6 cm/s
* CC(C)C[C@H]1NC(=O)[C@H]2CCCN2C(=O)[C@@H](CC(C)C)NC(=O)CN(Cc2ccccc2)C(=O)[C@H](C)NC(=O)[C@H](Cc2ccccc2)NC1=O: PAMPA 0.35 × 10^-6 cm/s
* CC(C)C[C@@H]1C(=O)N[C@@H](Cc2ccccc2)C(=O)N2CCC[C@H]2C(=O)N[C@@H](C)C(=O)N(Cc2ccccc2)CC(=O)N[C@@H](Cc2ccccc2)CC(=O)N2CCC[C@H]2C(=O)N1C: PAMPA 0.46 × 10^-6 cm/s
* CC(C)C[C@@H]1NC(=O)[C@@H](CC(C)C)NC(=O)C[C@H](Cc2ccccc2)NC(=O)[C@@H]2CCCN2C(=O)[C@H](Cc2ccccc2)NC(=O)[C@H](CC(C)C)N(C)C(=O)[C@H]2CCCN2C1=O: PAMPA 2.8 × 10^-6 cm/s
* CC(C)C[C@@H]1NC(=O)[C@H](C)N(C)C(=O)[C@@H]2CCCN2C(=O)[C@H](Cc2ccccc2)NC(=O)CN(Cc2ccccc2)C(=O)[C@@H]2CCCN2C(=O)[C@H](CC(C)C)NC1=O: PAMPA 0.68 × 10^-6 cm/s
* CC(C)C[C@@H]1NC(=O)[C@@H](C)NC(=O)[C@H](Cc2ccccc2)NC(=O)CN(Cc2ccccc2)C(=O)[C@H]2CCCN2C(=O)[C@@H](CC(C)C)NC1=O: PAMPA 1.3 × 10^-6 cm/s
* CCCN1CC(=O)N[C@H](CC(C)C)C(=O)N(Cc2ccccc2)CC(=O)N2CCC[C@H]2C(=O)N(C)[C@H](CC(C)C)C(=O)N[C@@H](Cc2ccccc2)C1=O: PAMPA 5.8 × 10^-6 cm/s
* CC(C)C[C@@H]1C(=O)N[C@@H](Cc2ccccc2)C(=O)N2CCC[C@@H]2C(=O)N[C@H](C)C(=O)N(C)[C@H](CC(C)C)C(=O)N[C@@H](Cc2ccccc2)CC(=O)N2CCC[C@@H]2C(=O)N1C: PAMPA 1.2 × 10^-6 cm/s
* CC(C)C[C@H]1C(=O)N(Cc2ccccc2)CC(=O)N2CCC[C@H]2C(=O)N(C)[C@@H](CC(C)C)C(=O)N[C@@H](Cc2ccccc2)C(=O)N2CCC[C@@H]2C(=O)N(C)[C@@H](C)C(=O)N1C: PAMPA 6.6 × 10^-6 cm/s
* CC(C)C[C@@H]1NC(=O)C[C@H](Cc2ccccc2)NC(=O)[C@H]2CCCN2C(=O)[C@H](Cc2ccccc2)NC(=O)[C@@H](CC(C)C)N(C)C(=O)[C@H]2CCCN2C(=O)C[C@H](Cc2ccccc2)NC1=O: PAMPA 1.3 × 10^-6 cm/s
* CCCN1CC(=O)N[C@@H](CC(C)C)C(=O)N[C@H](CC(C)C)C(=O)N2CCC[C@H]2C(=O)N[C@H](CC(C)C)C(=O)N[C@@H](Cc2ccccc2)C(=O)N2CCC[C@H]2C1=O: PAMPA 1.3 × 10^-6 cm/s
* CC(C)C[C@H]1NC(=O)[C@H](CC(C)C)N(C)C(=O)[C@H](C)NC(=O)[C@H]2CCCN2C(=O)[C@H](Cc2ccccc2)NC(=O)[C@H](CC(C)C)N(C)C(=O)[C@@H]2CCCN2C1=O: PAMPA 6 × 10^-6 cm/s
* CCCN1CC(=O)N[C@@H](CC(C)C)C(=O)N[C@@H](Cc2ccccc2)CC(=O)N2CCC[C@H]2C(=O)N(C)[C@@H](CC(C)C)C(=O)N[C@@H](Cc2ccccc2)C(=O)N2CCC[C@@H]2C1=O: PAMPA 5.5 × 10^-6 cm/s
* CC(C)C[C@@H]1C(=O)N[C@@H](Cc2ccccc2)CC(=O)N2CCC[C@@H]2C(=O)N(C)[C@@H](CC(C)C)C(=O)N[C@@H](Cc2ccccc2)C(=O)N2CCC[C@@H]2C(=O)N[C@@H](Cc2ccccc2)CC(=O)N1C: PAMPA 3.8 × 10^-6 cm/s
* CC(C)C[C@@H]1C(=O)N[C@@H](Cc2ccccc2)C(=O)N[C@@H](Cc2ccccc2)CC(=O)N[C@H](CC(C)C)C(=O)N(C)[C@@H](CC(C)C)C(=O)N2CCC[C@@H]2C(=O)N1C: PAMPA 4.5 × 10^-6 cm/s
* CC(C)C[C@@H]1NC(=O)C[C@H](Cc2ccccc2)NC(=O)[C@H](Cc2ccccc2)NC(=O)[C@@H](CC(C)C)NC(=O)[C@@H]2CCCN2C(=O)C[C@H](Cc2ccccc2)NC1=O: PAMPA 1.9 × 10^-6 cm/s
* CCCN1CC(=O)N[C@H](CC(C)C)C(=O)N[C@@H](CC(C)C)C(=O)N2CCC[C@@H]2C(=O)N[C@H](CC(C)C)C(=O)N[C@@H](Cc2ccccc2)C1=O: PAMPA 6.6 × 10^-6 cm/s
* CC(C)C[C@@H]1C(=O)N(Cc2ccccc2)CC(=O)N2CCC[C@@H]2C(=O)N[C@H](CC(C)C)C(=O)N[C@@H](Cc2ccccc2)C(=O)N2CCC[C@@H]2C(=O)N[C@H](C)C(=O)N1C: PAMPA 1.4 × 10^-6 cm/s

Extract of 2 entries:

{"smiles": "CC(C)C[C@@H]1NC(=O)[C@@H](CC(C)C)NC(=O)C[C@H](Cc2ccccc2)NC(=O)[C@@H]2CCCN2C(=O)[C@H](Cc2ccccc2)NC(=O)[C@H](CC(C)C)N(C)C(=O)[C@H]2CCCN2C1=O", "PAMPA (10^-6 cm/s)": "2.8"}
{"smiles": "CC(C)C[C@@H]1NC(=O)[C@@H](C)NC(=O)[C@H](Cc2ccccc2)NC(=O)CN(Cc2ccccc2)C(=O)[C@H]2CCCN2C(=O)[C@@H](CC(C)C)NC1=O", "PAMPA (10^-6 cm/s)": "1.3"}